This is a selection; strong and weak results do not stand in their true shares. Records with an inconclusive call do not appear. The source made the active and inactive calls.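 The calls were made as follows: active = fluorescent ligand binding to cells raised by more than 40% of the manganese-induced maximum; inconclusive = compound's own fluorescence above 85% of the ligand control signal; inactive = the rest.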

Chains of the proteins cited; added tags and fusions are not shown.
UniProt P13612, whole entry, looked up: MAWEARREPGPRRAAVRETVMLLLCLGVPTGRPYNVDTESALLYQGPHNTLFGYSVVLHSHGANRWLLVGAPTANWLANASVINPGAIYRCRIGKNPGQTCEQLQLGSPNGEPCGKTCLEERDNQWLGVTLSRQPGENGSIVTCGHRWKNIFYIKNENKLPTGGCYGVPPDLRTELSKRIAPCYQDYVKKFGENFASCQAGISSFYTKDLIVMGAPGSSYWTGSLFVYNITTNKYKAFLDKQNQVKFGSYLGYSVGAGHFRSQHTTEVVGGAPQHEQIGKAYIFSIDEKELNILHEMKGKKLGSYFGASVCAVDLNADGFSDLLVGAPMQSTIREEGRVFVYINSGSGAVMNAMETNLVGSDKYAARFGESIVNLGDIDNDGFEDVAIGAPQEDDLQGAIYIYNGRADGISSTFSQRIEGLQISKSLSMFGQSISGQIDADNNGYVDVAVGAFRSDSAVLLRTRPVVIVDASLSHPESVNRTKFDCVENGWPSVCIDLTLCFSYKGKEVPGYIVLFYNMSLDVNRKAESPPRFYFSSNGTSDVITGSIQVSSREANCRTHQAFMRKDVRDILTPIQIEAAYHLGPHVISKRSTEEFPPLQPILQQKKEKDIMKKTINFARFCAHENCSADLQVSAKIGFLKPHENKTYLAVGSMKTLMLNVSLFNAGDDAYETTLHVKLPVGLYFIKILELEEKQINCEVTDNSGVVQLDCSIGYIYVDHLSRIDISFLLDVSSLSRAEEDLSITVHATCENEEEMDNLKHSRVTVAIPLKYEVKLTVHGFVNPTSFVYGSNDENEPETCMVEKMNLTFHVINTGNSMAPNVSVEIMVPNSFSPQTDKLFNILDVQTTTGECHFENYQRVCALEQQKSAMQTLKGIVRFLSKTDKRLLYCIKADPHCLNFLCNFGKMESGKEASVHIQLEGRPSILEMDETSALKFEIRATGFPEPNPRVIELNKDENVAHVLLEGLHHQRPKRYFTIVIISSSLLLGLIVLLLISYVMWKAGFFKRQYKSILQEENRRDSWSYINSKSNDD

The target of the assay is Integrin alpha-4 (Homo sapiens) (UniProt P13612). Kind of assay: enhancers of LDV-FITC binding to VLA-4 integrin, primary screen, Jurkat cells, flow cytometry (AID 528).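 Also: 0% = ligand binding without compound and 100% = manganese-stimulated maximal binding.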 To be noted: stronger effect = higher value, screened at 10 µM (by protocol). On the technique in general: Flow cytometry measures light scatter and fluorescence of single cells or particles in a stream.
As to `CP(=S)(Nn1cnnc1)Oc1ccccc1` (stereo unspecified), the activation is inactive: 4%.

For the molecule `Cc1ccccc1NP(C)(=O)Nc1ccccc1C`, the activation is inactive: -4%.

For the molecule `CP(=O)(Nc1ccc2c(c1)OCCO2)Oc1ccccc1` (stereo unspecified), the activation is inactive: 3%.

On to `CN(C)CCOC(=O)C(O)(c1ccccc1)C1CCCCC1` (stereo unspecified), for which the activation was inactive: 6.5%.

As for `CP(=O)(Nc1ccccn1)Oc1ccccc1` (stereo unspecified), the activation was inactive: 7%.

As for `Cc1nc2ccc3ccccc3c2o1.O=[N+]([O-])c1cc([N+](=O)[O-])c(O)c([N+](=O)[O-])c1`, the activation is inactive: -13.5%.
